In PubChem BioAssay (EPA / NIEHS) one finds outcome data, which are given here for eleven molecules.

The structures appear in SMILES notation. This is a selection; strong and weak results do not stand in their true shares. Calls of active or inactive are those of the source. Rule for the calls: active = hit-call score of the fitted dose curve at least 0.9, where 1 is the maximum; inactive = score below 0.9.

This experiment in a line: ATG_EGR_CIS: Attagene CIS-FACTORIAL HepG2 Assay for human Early Growth Response 1 (EGR1) (AID 2282938). The note with it: HepG2 Attagene CIS-FACTORIAL EGR reporter mRNA; actives raise or lower the signal. How it is done:
ATG_CIS is a cell-based, multiplexed-readout assay that uses HepG2, a human liver cell line, with measurements taken at 24 hours after chemical dosing in a 24-well plate.ATG_EGR_CIS is one of 52 assay component(s) measured or calculated from the ATG_CIS assay. It is designed to make measurements of mRNA induction, a form of inducible reporter, as detected with fluorescence intensity signals by Reverse transcription polymerase chain reaction (RT-PCR) and Capillary electrophoresis technology.Data from the assay component ATG_EGR_CIS was analyzed into 1 assay endpoint. This assay endpoint, ATG_EGR_CIS, was analyzed with bidirectional fitting relative to DMSO as the negative control and baseline of activity. Using a type of inducible reporter, measures of mRNA for gain or loss-of-signal activity can be used to understand the reporter gene at the transcription factor-level as they relate to the gene EGR1. Furthermore, this assay endpoint can be referred to as a primary readout, because this assay has produced multiple assay endpoints where this one serves a reporter gene function. To generalize the intended target to other relatable targets, this assay endpoint is annotated to the dna binding intended target family, where the subfamily is zinc finger.
Human liver HepG2 cells are transiently transfected with multiple reporter transcription units (MRTUs) in 6-well plates using FuGene 6 reagent (Roche; 3 ml FuGene/1 mg DNA). The MRTU constructs are regulated by a cis-regulating element (promoter). […] A major difference between the CIS and TRANS system is that in CIS activities of endogenous TFs are measured, whereas the TRANS assay evaluates changes in activities of exogenous, chimeric NR-Gal4 proteins. […] At the end of 24 hour incubation, total RNA was isolated using TriZol reagent (Invitrogen). The isolated RNA is then reverse-transcribed using oligo(dT) primer and Mo-MLV reverse transcriptase (Invitrogen) with DNAse I (Ambion) treatment for 30 min. The one-tenth of the produced cDNA was amplified by PCR using Taq DNA polymerase (Invitrogen) and two reporter sequence-specific primers. The PCR products were fluorescently labeled by primer extension with 6-arboxyfluorescein (6-FAM) 5'-labeled reporter sequence-specific primer (2 min at 95 C, 20 s at 68 C and 10 min at 72 C) and these products were digested with 5U of HpaI (New England Biolabs) for 2h at 37 C. The fragments were purified using Qiaquick PCR columns (Qiagen), analyzed on an ABI 3130xL genetic analyzer (Applied Biosystems) with peak positions identified by using a set of X-rhodamine (ROX)-labeled MapMarker1000 molecular weight standards (BioVentures). The raw capillary electrophoresis data was processed using Attagraph software (Attagene).
As to `N#CBr`, the result was inactive.
As to `CC(C)OP(C)(=O)OC(C)C`, the result was inactive.
Take `Cc1ccc([N+](=O)[O-])c([N+](=O)[O-])c1`: the outcome was inactive.
Next, `COc1ccc([N+](=O)[O-])cc1[N+](=O)[O-]`: “inactive”; `O=[N+]([O-])c1cccc([N+](=O)[O-])c1`: “inactive”; `CN(C)CCCl`: “inactive”.
Next, `O=[N+]([O-])OCC(CO[N+](=O)[O-])(CO[N+](=O)[O-])CO[N+](=O)[O-]`: “inactive”.
In the case of `CC(C)N(CCO)C(C)C`, the outcome was inactive.
To `COP(C)(=O)OC` belongs “inactive”; to `Cc1c([N+](=O)[O-])cccc1[N+](=O)[O-]`, “inactive”; to `Cc1ccc([N+](=O)[O-])cc1[N+](=O)[O-]`, “inactive”.
